PubChem BioAssay AID504329 (Southern Research Specialized Biocontainment Screening …, 2011)
Some of the results follow. Entries with a potency or affinity are not part of this list. Some of these compounds have results that are not shown, active ones among them. The source made the active and inactive calls. Cut-off read from the data, not from the text of the source: inconclusive = inhibition above about 27% without an active follow-up result; inactive = below that.

Test: H1N1 influenza NS1A inhibitors, functional cell based assay (AID 504329)
Conditions: percent inhibition, at 12.5 µM, hits give high values

SMILES | inhibition
O=C(NCC1(N2CCCCC2)CCCCC1)c1cc([N+](=O)[O-])ccc1Cl | inactive: -1.01%
CN1[C@@H]2CC[C@H]1CC(OC(=O)C(O)(c1ccccc1)c1ccccc1)C2 (stereo not given in full) | inactive: -18.8%
CC(C)N1C(=O)CC2(CCN(CCOC(=O)C(O)(c3ccccc3)c3ccccc3)CC2)C1=O | inactive: 2.75%
COc1cc(SC)ccc1C(=O)NCC1(N(C)C)CCCCC1 | inactive: -3.54%
CCN(CC)CC(C)C(C)OC(=O)C(O)(c1ccccc1)c1ccccc1 (stereo not given) | inactive: -13%
Cc1ccc(C(=O)NCC2(N3CCCCC3)CCCCC2)cc1 | inactive: -0.73%
CN(C)C1CCCC1OC(=O)C(O)(c1ccccc1)c1ccccc1 (stereo not given) | inactive: -2.26%
CN(C)c1ccc(C(=O)NCC2(N(C)C)CCCCC2)cc1 | inactive: -2.86%
Cc1ccccc1C(=O)NCC1(N2CCCCC2)CCCCC1 | inactive: 7.29%
O=C(NCC1(N2CCCCC2)CCCCC1)c1cc(F)c(F)cc1Cl | inactive: -6.35%
C=CCN1CCN(CCOC(=O)C(O)(c2ccccc2)c2ccccc2)CC1 | inactive: -12.5%
O=C(NCC1(N2CCCCC2)CCCCC1)c1cccc(Br)c1 | inactive: -0.27%
Cc1cc(C(=O)NCC2(N3CCCCC3)CCCCC2)ccc1[N+](=O)[O-] | inactive: 0.35%
CCN1CCCC(OC(=O)C2(O)c3ccccc3C=Cc3ccccc32)C1 (stereo not given) | inactive: -4.59%
COc1ccc(C(=O)NCC2(N(C)C)CCCCC2)cc1 | inactive: -6.86%
CN(C)C1(CNC(=O)c2ccc(Br)cc2)CCCCC1 | inactive: -2.51%
COc1cc(C(=O)NCC2(N(C)C)CCCCC2)c([N+](=O)[O-])cc1OC | inactive: -21.6%
COc1ccc(Cl)cc1C(=O)NCC1(N(C)C)CCCCC1 | inactive: -4.24%
COc1cccc(C(=O)NCC2(N3CCCCC3)CCCCC2)c1 | inactive: -4.9%
O=C(NCC1(N2CCCCC2)CCCCC1)c1cccc(Cl)c1 | inactive: 1.13%
O=C(OC1CN2CCC1CC2)C(CO)(c1ccccc1)c1ccccc1 (stereo not given) | inactive: 1.87%
COc1ccc(Br)c(C(=O)NCC2(N3CCCCC3)CCCCC2)c1 | inactive: 1.51%
CN(C)c1cccc(C(=O)NCC2(N(C)C)CCCCC2)c1 | inactive: -4.13%
O=C(OCCN1CCCC1)C(O)(c1ccccc1)c1ccccc1 | inactive: -3.92%
CC(C)Oc1ccc(C(=O)NCC2(N(C)C)CCCCC2)cc1 | inactive: 0.8%
